## Measured affinities in a library of Ab-14 heavy chain variants

Source: Engelhart et al. 2022 (doi:10.1038/s41597-022-01779-4), MIT Lincoln Laboratory and A-Alpha Bio; data file from the FLAb repository.

The target is the same throughout: PDVDLGDISGINAS, from the HR2 region of SARS-CoV-2 spike.

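The parent was found by panning a naive human phage display library on the peptide. Library AAYL49 holds single substitutions and randomly drawn double and triple substitutions in the CDRs. AlphaSeq pools MATa yeast showing the antibodies with MATalpha yeast showing the peptide. Binding brings cells together so that they mate, and sequencing counts the barcode pairs among the diploids. A regression on co-assayed BCL2-family reference pairs converts the normalised counts of each replicate to an apparent Kd. Each pool was mated in three replicate cultures.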

Ab-14 is the parent antibody, in scFv form: VH, then three GGGGS repeats, then VL. The light chain is unchanged in all variants.
VH: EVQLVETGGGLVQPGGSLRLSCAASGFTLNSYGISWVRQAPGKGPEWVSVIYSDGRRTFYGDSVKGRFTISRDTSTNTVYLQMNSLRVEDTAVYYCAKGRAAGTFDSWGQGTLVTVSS
VL: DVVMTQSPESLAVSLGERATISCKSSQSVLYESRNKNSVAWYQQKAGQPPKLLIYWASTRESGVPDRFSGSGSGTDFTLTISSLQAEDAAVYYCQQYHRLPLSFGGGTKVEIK

Positions count from residue 1 of the parent VH; S35E puts E in place of S. Values are log10 of the apparent Kd in nM; lower means stronger binding. A pair that was not seen in that replicate is written "nd"; this usually means weak binding, but a binder can also be missed.

| # | changes | log10 Kd, replicates | control signals |
|---|---|---|---|
| 1 | S35E I51R T58H | nd / nd / nd | 0 of 9 |
| 2 | I51L D54Y G99A | nd / nd / nd | 0 of 9 |
| 3 | S31V D54G R57G | nd / 3.88 / 4.46 | 7 of 9 (5.04) |
| 4 | I34C F59V G61C | nd / nd / nd | 0 of 9 |
| 5 | L29T G99A T104L | 2.92 / 3.08 / 2.70 | 0 of 9 |
| 6 | V50Y S63T D106F | 4.02 / nd / nd | 0 of 9 |
| 7 | R56M G99Y S107A | 1.78 / nd / nd | 0 of 9 |
| 8 | Y52D F59I T104E | nd / 3.57 / nd | 1 of 9 (4.53) |
| 9 | F59V K65C A102E | nd / 2.61 / nd | 1 of 9 (4.03) |
| 10 | L29S Y60N V64G | nd / nd / nd | 1 of 9 (2.81) |
| 11 | R56T A101H | 0.83 / 1.06 / 1.03 | 2 of 9 (4.42) |
| 12 | G33L Y52V T104V | 3.34 / nd / nd | 0 of 9 |
| 13 | G26W V50G D62A | nd / nd / nd | 1 of 9 (4.49) |
| 14 | S35E S63W F105A | nd / nd / nd | 0 of 9 |
| 15 | F27W T28D D54F | 5.95 / 4.11 / 5.84 | 2 of 9 (3.76) |
| 16 | T28P N30C F105Q | nd / nd / nd | 0 of 9 |
| 17 | V50L R57C K65R | nd / nd / 5.90 | 0 of 9 |
| 18 | G26T D62A G99C | nd / nd / nd | 0 of 9 |
| 19 | F27R T28N S63Y | nd / 3.27 / nd | 0 of 9 |
| 20 | Y52S A102H D106W | nd / 3.39 / 5.69 | 1 of 9 (4.23) |
| 21 | L29I Y52V D62A | nd / 3.64 / nd | 3 of 9 (3.73) |
| 22 | G61V G103Q T104N | 1.53 / 1.79 / 2.46 | 3 of 9 (4.29) |
| 23 | N30H G55C R100L | nd / nd / nd | 0 of 9 |
| 24 | G99R | 1.65 / 1.20 / 1.60 | 0 of 9 |
| 25 | S53T R100D F105A | 3.42 / 5.43 / nd | 3 of 9 (4.48) |
| 26 | F27C S107Y | nd / nd / nd | 0 of 9 |
| 27 | I51F T58R S107R | nd / 3.81 / 4.05 | 1 of 9 (4.06) |
| 28 | N30I Y52K D54L | nd / nd / nd | 0 of 9 |
| 29 | G61Y F105T D106C | nd / nd / nd | 0 of 9 |
| 30 | F27M Y32H | 3.08 / 2.68 / 3.62 | 2 of 9 (4.83) |
| 31 | I34Q D54T R57M | nd / 3.39 / nd | 1 of 9 (4.26) |
| 32 | V50Q F59Q | nd / nd / nd | 0 of 9 |
| 33 | R57T F59V D62M | nd / nd / nd | 2 of 9 (3.40) |
| 34 | G26V Y60T A101I | 2.99 / 3.19 / 3.52 | 3 of 9 (4.02) |
| 35 | L29E A102D T104D | nd / nd / nd | 1 of 9 (3.80) |

From the list, the first 2 with no signal in any replicate:

changes	log10 Kd, replicates	control signals
S35E I51R T58H	nd / nd / nd	0 of 9
I51L D54Y G99A	nd / nd / nd	0 of 9

Nonspecific signal, from three strains lacking the peptide, appeared in 15% of pairings of library AAYL49, centred on 4.06 (5% of these signals below 2.83); values are not corrected for it. The control count says in how many pairings with the empty strains this scFv gave a signal, with their mean in brackets.